# Experimental data as given in ChEMBL document CHEMBL1135203, “Benzodiazepine inhibitors of the MMPs and TACE” (Bioorg Med Chem Lett, 2002).
# Protein sequences, listed by entry. Tags and fused reporters are not part of them. Lines headed by an entry give the natural chain unless they say otherwise; changes in a name come on top.
# UniProt P14780: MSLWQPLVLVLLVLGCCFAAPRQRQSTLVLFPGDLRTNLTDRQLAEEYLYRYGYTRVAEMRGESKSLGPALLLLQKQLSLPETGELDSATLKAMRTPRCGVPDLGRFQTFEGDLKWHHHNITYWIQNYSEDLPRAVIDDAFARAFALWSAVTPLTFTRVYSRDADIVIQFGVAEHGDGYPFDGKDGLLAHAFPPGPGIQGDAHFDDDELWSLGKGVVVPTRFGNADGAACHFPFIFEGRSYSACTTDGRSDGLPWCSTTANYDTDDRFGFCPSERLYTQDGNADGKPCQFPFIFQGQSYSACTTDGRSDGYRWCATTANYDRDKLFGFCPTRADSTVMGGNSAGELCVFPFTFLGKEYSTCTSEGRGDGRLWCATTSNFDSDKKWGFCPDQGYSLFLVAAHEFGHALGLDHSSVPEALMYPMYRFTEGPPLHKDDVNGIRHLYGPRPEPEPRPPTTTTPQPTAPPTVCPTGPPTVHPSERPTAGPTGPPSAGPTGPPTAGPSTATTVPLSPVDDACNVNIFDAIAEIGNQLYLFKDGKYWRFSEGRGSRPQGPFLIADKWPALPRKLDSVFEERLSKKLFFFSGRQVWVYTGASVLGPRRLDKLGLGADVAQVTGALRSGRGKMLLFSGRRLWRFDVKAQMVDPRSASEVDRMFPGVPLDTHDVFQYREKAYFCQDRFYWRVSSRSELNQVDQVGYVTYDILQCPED
# Target: Matrix metalloproteinase-9 (Homo sapiens, UniProt P14780)
# Assay: Concentration required in vitro to inhibit Matrix metalloprotease-9
structure (smiles),measurement,value
COc1ccc(S(=O)(=O)N2Cc3ccccc3N(C(=O)c3cccs3)CC2C(=O)NO)cc1 (stereo unspecified),IC50,1 nM
